# Yeast mating assay 1: variants of the scFv Ab-14

Target: peptide PDVDLGDISGINAS, taken from heptad repeat 2 (HR2) of SARS-CoV-2 spike.

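Phage display of a naive human antibody library on the peptide gave the parent. The library (AAYL49) carries one to three amino acid substitutions per variant, with no insertions or deletions. AlphaSeq pools MATa yeast showing the antibodies with MATalpha yeast showing the peptide. The frequency of each diploid, read from paired DNA barcodes, reflects how well the two displayed proteins bind. A regression on co-assayed BCL2-family reference pairs converts the normalised counts of each replicate to an apparent Kd. There are three technical replicates.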

The variants keep the light chain, the linker and the frameworks of Ab-14 (scFv order VH, the linker GGGGSGGGGSGGGGS, VL).
VH: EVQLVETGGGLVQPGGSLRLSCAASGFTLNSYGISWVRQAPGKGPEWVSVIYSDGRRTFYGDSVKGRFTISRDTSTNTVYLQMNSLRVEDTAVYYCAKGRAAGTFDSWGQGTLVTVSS
VL: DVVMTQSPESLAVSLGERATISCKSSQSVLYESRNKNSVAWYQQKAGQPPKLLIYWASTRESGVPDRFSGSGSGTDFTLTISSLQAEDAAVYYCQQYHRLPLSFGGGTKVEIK

Positions count from residue 1 of the parent VH; F27R puts R in place of F.
All variants listed here change T58 of the VH, counted from its first residue.
The Kd shown is the geometric mean over detected replicates; a lower Kd is a better binder.
A pair that was not seen in any replicate is written "no signal"; this usually means weak binding, but a binder can also be missed.
Background: pairings of library AAYL49 with three empty control strains gave a value in 15% of cases (median 11 µM, 5th percentile 680 nM). Values in that range, when seen in few replicates, are hard to tell from nonspecific mating. The control count says in how many pairings with the empty strains this scFv gave a signal.

Variant F27R/R57A/T58S gave no signal (0 of 3 replicates; controls 3 of 9). Variant Y52D/T58D/F59C gave no signal (0 of 3 replicates; controls 0 of 9). Variant T58I gave 42 nM (3 of 3 replicates; controls 3 of 9). With S31E/T58C/A101V the result was 1.4 µM (3 of 3 replicates; controls 5 of 9). Variant G33F/S53F/T58D gave 2.5 µM (1 of 3 replicates; controls 6 of 9). With T58V/A101R/G103H the result was no signal (0 of 3 replicates; controls 0 of 9). For N30G/S53R/T58K, the assay gave 58 µM (1 of 3 replicates; controls 1 of 9). Variant G26E/L29R/T58S showed no signal (0 of 3 replicates; controls 0 of 9). For I34G/S53H/T58Y, the assay gave no signal (0 of 3 replicates; controls 0 of 9).

Variant S31P/T58V/F59R showed 600 nM (3 of 3 replicates; controls 3 of 9). Variant T28Q/T58D/F59R showed no signal (0 of 3 replicates; controls 0 of 9). Variant Y32S/T58Q/A102E showed 4.2 µM (1 of 3 replicates; controls 2 of 9). Variant T58R/F59C showed 960 nM (3 of 3 replicates; controls 0 of 9). Variant I34R/T58C/Y60M showed 740 nM (1 of 3 replicates; controls 1 of 9). For N30K/T58G/F59I, the assay gave 31 µM (2 of 3 replicates; controls 5 of 9). Variant I34S/Y52A/T58H showed 66 µM (2 of 3 replicates; controls 4 of 9). Variant D54Q/T58K/V64M showed no signal (0 of 3 replicates; controls 0 of 9). With R57L/T58Q/Y60G the result was no signal (0 of 3 replicates; controls 3 of 9).

For N30R/G55I/T58C, the assay gave no signal (0 of 3 replicates; controls 0 of 9). Variant V50R/T58Y/D106S gave no signal (0 of 3 replicates; controls 0 of 9). Variant T58I/F59P/G103W showed no signal (0 of 3 replicates; controls 0 of 9). Variant S35K/T58W/K65E showed no signal (0 of 3 replicates; controls 2 of 9). Variant T58E/D62C/S107Y gave no signal (0 of 3 replicates; controls 0 of 9). Variant N30C/T58K/F105N gave no signal (0 of 3 replicates; controls 0 of 9). Variant S35D/T58D/V64E gave no signal (0 of 3 replicates; controls 0 of 9). With N30D/T58D/F59T the result was no signal (0 of 3 replicates; controls 1 of 9). For T28I/D54M/T58I, the assay gave 40 µM (1 of 3 replicates; controls 0 of 9).

Variant L29H/T58R/F59Q showed 7.5 µM (1 of 3 replicates; controls 1 of 9). Variant S31V/Y32R/T58L showed 12 nM (3 of 3 replicates; controls 0 of 9). With G26W/D54S/T58N the result was no signal (0 of 3 replicates; controls 1 of 9). For T58N/A101F/A102G, the assay gave 1.9 µM (1 of 3 replicates; controls 0 of 9). For V50T/T58E/Y60N, the assay gave 2.4 µM (1 of 3 replicates; controls 1 of 9). Variant S31M/T58D/G61I showed 14 nM (3 of 3 replicates; controls 4 of 9). Variant T58W/G61F/D62S gave 6.4 µM (1 of 3 replicates; controls 1 of 9). Variant G26M/T58V showed 2.9 µM (3 of 3 replicates; controls 2 of 9). Variant T58G/D62W/S107T gave 150 µM (1 of 3 replicates; controls 5 of 9).

Variant N30M/T58V/D62C gave no signal (0 of 3 replicates; controls 0 of 9). For Y32P/T58W, the assay gave no signal (0 of 3 replicates; controls 5 of 9). For V50E/T58D/S107E, the assay gave no signal (0 of 3 replicates; controls 1 of 9). Variant S53G/T58P/A102F gave 5.5 µM (3 of 3 replicates; controls 3 of 9). Variant T58D/Y60C/S107D showed 46 µM (3 of 3 replicates; controls 4 of 9). With G55Q/R56F/T58K the result was no signal (0 of 3 replicates; controls 0 of 9). Variant T58F/K65W/A102K gave 8.7 µM (2 of 3 replicates; controls 2 of 9). With T58D/V64I/K65Y the result was no signal (0 of 3 replicates; controls 1 of 9). Variant S53V/T58L/D106M gave no signal (0 of 3 replicates; controls 1 of 9).

Variant F27I/L29R/T58F showed 160 µM (1 of 3 replicates; controls 2 of 9). Variant I34S/R56D/T58A gave 560 nM (1 of 3 replicates; controls 1 of 9). Variant T58G/Y60I/S63M showed no signal (0 of 3 replicates; controls 0 of 9). With T58K/Y60Q/K65N the result was 120 µM (2 of 3 replicates; controls 4 of 9).

The closing 4 entries, repeated:

| changes | Kd | detected | empty controls |
|---|---|---|---|
| F27I/L29R/T58F | 160 µM | 1/3 | 2/9 |
| I34S/R56D/T58A | 560 nM | 1/3 | 1/9 |
| T58G/Y60I/S63M | no signal | 0/3 | 0/9 |
| T58K/Y60Q/K65N | 120 µM | 2/3 | 4/9 |

In this assay the parent's reference entry averaged 4.4 nM; its copy inside this library read 13 µM (one replicate of three).

The measurements come from Engelhart et al. 2022 (doi:10.1038/s41597-022-01779-4) through the FLAb antibody collection.